From ChEMBL document CHEMBL2021912, “Synthesis, cytotoxicity and apoptosis of cyclotriphosphazene compounds as anti-cancer agents” (Eur J Med Chem, 2012)
Active and inactive are the calls of the source. No cut-off for these calls is given here.

Tests used:
HEp-2 = assay: Cytotoxicity against human Hep2 cells after 24 hrs at 37 degC by MTT assay; assay type: functional
Method in brief: (§1)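 Vero and HT-29 grown in DMEM/10% FBS, Hep2 in EMEM/10% FBS; seeded at 2 × 10^4 (Vero, Hep2) or 3 × 10^4 (HT-29) cells/mL; exposed 24 h to 0.2–50 µg/mL compound, final DMSO 1%; MTT 1 mg/mL 2 h at 37 °C, formazan in DMSO, OD 540 nm; % of DMSO control; ID50 by probit; triplicate wells, three repeats.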

HT-29 = assay: Cytotoxicity against human HT-29 cells after 24 hrs at 37 degC by MTT assay; assay type: functional; method in brief: as §1

Row | Structure (SMILES) | ID50 (HEp-2) | ID50 (HT-29)
1 | FC1(F)COP2(Cl)=NP(Cl)(Cl)=NP(Cl)(=N2)OCC1(F)F (stereo unspecified) | 2.7 µM | 5.59 µM
2 | ClP1(Cl)=NP(Cl)(Cl)=NP(Sc2ccccc2)(Sc2ccccc2)=N1 | 5.43 µM | 3.78 µM
3 | FC1(F)COP2(=NP(Cl)(Cl)=NP(Cl)(Cl)=N2)OCC1(F)F | 3.3 µM | 4.31 µM
4 | ClP1(Cl)=NP(Cl)(Cl)=NP(Cl)(Cl)=N1 | inactive | 
5 | CC1(C)COP2(=NP(Cl)(Cl)=NP(Cl)(Cl)=N2)OC1 | 2.3 µM | 4.09 µM
6 | ClP1(Cl)=NP(Cl)(Cl)=NP(Nc2ccccc2)(Nc2ccccc2)=N1 | inactive | inactive
